Results as given in EP4834898A1, “TDG INHIBITOR COMPOUND AND USE THEREOF” (dated 2026).

Chains of the proteins cited; added tags and fusions are not shown.
UniProt Q13569, whole entry: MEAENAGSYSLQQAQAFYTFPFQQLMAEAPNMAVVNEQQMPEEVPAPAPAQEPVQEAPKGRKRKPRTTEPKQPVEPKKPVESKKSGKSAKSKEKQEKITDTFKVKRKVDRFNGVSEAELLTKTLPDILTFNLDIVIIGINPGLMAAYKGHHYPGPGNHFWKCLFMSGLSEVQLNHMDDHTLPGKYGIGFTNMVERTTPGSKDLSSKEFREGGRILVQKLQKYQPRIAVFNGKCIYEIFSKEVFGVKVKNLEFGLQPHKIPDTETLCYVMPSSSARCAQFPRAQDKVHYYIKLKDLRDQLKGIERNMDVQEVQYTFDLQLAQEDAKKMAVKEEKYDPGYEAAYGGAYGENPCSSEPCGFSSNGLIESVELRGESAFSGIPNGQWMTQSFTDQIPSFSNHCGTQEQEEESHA

Experiments:
His-tagged TDG protein = His-tagged TDG protein (Homo sapiens, UniProt Q13569); assay: HTRF assay: inhibition of the binding of TDG to double-stranded DNA substrates; details: read-out: Activity, IC50 class, TDG 40 nM, Biotin-labeled dsDNA substrate 40 nM, 4PL fit
Experimental: HTRF (Homogeneous Time-Resolved Fluorescence) technology was used to evaluate the inhibitory effects of the compounds on the binding of TDG to double-stranded DNA substrates.
Microplate reader (manufacturer: Perkin Elmer; model: Envision multilabel reader equipped with HTRF module) and Echo 550 (manufacturer: Labcyte; model: Echo 550).
• 1. Preparation of compound concentration gradient: Test compounds were prepared at a starting concentration of 250 µM, with 3-fold serial dilution, 10 concentrations, and duplicate wells. In a 384-well plate, the compounds were gradient-diluted to 40× final concentration solutions at 10 different concentrations. Then 500 nl was transferred to a 384-well reaction plate using Echo 550 for later use. To the negative control wells and positive control wells, 500 nl of 100% DMSO or Biotin-unlabeled dsDNA substrate was added, respectively. • 2. Add 1.5 µl/well of Epigeneous Binding Domain diluent buffer to the 384-well plate, and centrifuge at 1000 rpm for 1 min. • 3. Add 4 µl of 5× final concentration of His-tagged TDG protein (final concentration 40 nM, diluted with Epigeneous Binding Domain diluent buffer) to the 384-well plate, centrifuge at 1000 rpm for 1 min, and incubate at room temperature for 10 min. • 4. Add 4 µl of 5× final concentration of Biotin-labeled dsDNA substrate (final concentration 40 nM, diluted with Epigeneous Binding Domain diluent buffer) to the 384-well plate, centrifuge at 1000 rpm for 1 min, and incubate at room temperature for 30 min. • 5. Add 5 µl of 4× final concentration of Streptavidin-XL665 (final concentration 5 nM, diluted with Epigeneous Binding Domain Detection buffer) to the 384-well plate, and centrifuge at 1000 rpm for 1 min. • 6. Add 5 µl of 4× final concentration of MAb Anti-6HIS-Eu cryptate Gold (final concentration 0.1 µg/ml, diluted with Epigeneous Binding Domain Detection buffer) to the 384-well plate, and centrifuge at 1000 rpm for 1 min.
Incubate overnight at 4 °C, and read HTRF on the microplate reader.
• 1. Calculation of Ratio value for each well Ratio = Signal 665 nm / Signal 620 nm × 104. • 2. Calculation of delta Ratio value for each well delta Ratio = Ratio standard or sample - Ratio standard 0 (negative control). • 3. IC50 values were fitted using a four-parameter logistic (4PL) curve.

[1] = test system: TP53 mutant and wild-type tumor cells; assay: Tumor cell proliferation inhibition, CellTiter-Glo luminescent cell viability assay; details: 0.04-30 µM, 6 days of incubation; result in words, IC50 values only in Figure 1
Experimental: IC50 values of compound 14 for inhibiting the proliferation of TP53 mutant and wild-type tumor cells. The TP53 mutant and wild-type tumor cells used in this example are all human tumor cell.
Tumor cells were plated in 384-well plates and treated with DMSO or specified concentrations of compound 14 (0.04-30 µM). After 6 days of incubation, chemiluminescence was measured using the CellTiter-Glo luminescent cell viability assay kit (Promega). Curves were fitted using GraphPad Prism software, and IC50 values were calculated.

## COc1cc(O)c(C)cc1C1OC(=O)C2CC21 (centres unmarked)
His-tagged TDG protein
  IC50: 500 to 5000 nM
[1]
  inhibiting the in vitro proliferation of p53 mutant and wild-type tumor cell lines: certain inhibitory effects on various tumor cell lines
